One molecule from patent publication US12721838B2 (Henry Ford Health System, priority 2020, dated 2026) can be followed below.

By UniProt entry, the sequences of proteins in these tests, tags left out. Where a name states a change or a piece, a line headed by the entry shows the natural chain unless it says otherwise.
UniProt Q92519: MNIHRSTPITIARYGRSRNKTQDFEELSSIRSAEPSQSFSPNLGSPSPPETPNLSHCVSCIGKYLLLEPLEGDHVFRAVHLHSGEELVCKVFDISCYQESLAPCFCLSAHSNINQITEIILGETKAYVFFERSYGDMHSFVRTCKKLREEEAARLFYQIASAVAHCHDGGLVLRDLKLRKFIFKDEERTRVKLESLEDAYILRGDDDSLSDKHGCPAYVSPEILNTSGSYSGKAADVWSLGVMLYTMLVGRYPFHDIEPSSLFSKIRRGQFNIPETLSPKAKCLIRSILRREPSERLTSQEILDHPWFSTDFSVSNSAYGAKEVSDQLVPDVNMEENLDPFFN

This experiment has as its target T1, Trib2-Luciferase (Luc-Trib2) fusion (Homo sapiens, UniProt Q92519).
T1 sequence (Q92519 with tags, fused parts or gaps): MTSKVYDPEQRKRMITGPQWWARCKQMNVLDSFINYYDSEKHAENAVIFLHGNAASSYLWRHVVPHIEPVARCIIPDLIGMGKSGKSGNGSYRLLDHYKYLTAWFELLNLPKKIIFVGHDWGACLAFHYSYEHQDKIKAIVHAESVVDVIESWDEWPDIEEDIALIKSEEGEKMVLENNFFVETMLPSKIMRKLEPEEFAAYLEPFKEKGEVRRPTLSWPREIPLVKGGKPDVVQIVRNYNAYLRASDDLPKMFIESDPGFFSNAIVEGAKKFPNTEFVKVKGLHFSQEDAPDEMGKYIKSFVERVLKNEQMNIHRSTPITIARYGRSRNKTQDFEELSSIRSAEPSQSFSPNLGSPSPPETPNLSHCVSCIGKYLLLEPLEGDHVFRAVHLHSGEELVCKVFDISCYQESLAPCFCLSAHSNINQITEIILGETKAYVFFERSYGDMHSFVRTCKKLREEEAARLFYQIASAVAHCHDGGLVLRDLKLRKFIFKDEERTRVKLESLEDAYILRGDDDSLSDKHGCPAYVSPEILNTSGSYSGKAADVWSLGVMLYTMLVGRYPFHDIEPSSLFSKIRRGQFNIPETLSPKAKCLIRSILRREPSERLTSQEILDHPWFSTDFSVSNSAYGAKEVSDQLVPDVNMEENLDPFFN
As to the kind of experiment: cell-based. The conditions noted are these: HFF, read-out: Luciferase activity (%).

As to `O=c1[nH]ccc2c(S(=O)(=O)N3CCCNCC3)cccc12` [Hydroxyfasudil], the activity at 10 µM is 46%.
